Data: patent US20180297966A1, “COMPOUNDS, COMPOSITIONS, AND METHODS OF MAKING AND USING THE SAME” (INNOVATIVE ANESTHETICS, LLC, priority 2015, published 2018)

Test: pH of exemplary salts with respect to concentration (% w/v)
Format: physicochemical

## Cc1cccc(C)c1NC(=O)C1CCCCN1C.O=C1NS(=O)(=O)c2ccccc21 (stereo not shown) [Mepivacaine saccharinate, Mepivacaine Saccharinate]
  pH: 3.95
